Measurements taken from ChEMBL document CHEMBL5236628 (J Med Chem, 2022).

Test system: Plasmodium berghei
Assay: Antiplasmodial activity against liver stage Plasmodium berghei ANKA sporozoites expressing GFP infected in HepG2 cells pre-infected with cells for 1 hr prior to compound addition and measured after 48 hrs by flow cytometry analysis

Row | Compound | IC50
1 | FC(F)(F)c1noc(-c2ccc(CCN3CCC(Nc4nc5ccccc5[nH]4)CC3)cc2)n1 | 0.49 µM
2 | COc1cc(NC(C)CCCN)c2ncccc2c1 (configuration not stated) [PRIMAQUINE] | 6 µM
